Assay results reported in publication PMC11127902, “Rescuing tri-heteromeric NMDA receptor function: the potential of pregnenolone-sulfate in loss-of-function GRIN2B variants” (Cellular and Molecular Life Sciences: CMLS, 2024).

By UniProt entry, the sequences of proteins in these tests, tags left out. Where a name states a change or a piece, a line headed by the entry shows the natural chain unless it says otherwise.
UniProt Q12809: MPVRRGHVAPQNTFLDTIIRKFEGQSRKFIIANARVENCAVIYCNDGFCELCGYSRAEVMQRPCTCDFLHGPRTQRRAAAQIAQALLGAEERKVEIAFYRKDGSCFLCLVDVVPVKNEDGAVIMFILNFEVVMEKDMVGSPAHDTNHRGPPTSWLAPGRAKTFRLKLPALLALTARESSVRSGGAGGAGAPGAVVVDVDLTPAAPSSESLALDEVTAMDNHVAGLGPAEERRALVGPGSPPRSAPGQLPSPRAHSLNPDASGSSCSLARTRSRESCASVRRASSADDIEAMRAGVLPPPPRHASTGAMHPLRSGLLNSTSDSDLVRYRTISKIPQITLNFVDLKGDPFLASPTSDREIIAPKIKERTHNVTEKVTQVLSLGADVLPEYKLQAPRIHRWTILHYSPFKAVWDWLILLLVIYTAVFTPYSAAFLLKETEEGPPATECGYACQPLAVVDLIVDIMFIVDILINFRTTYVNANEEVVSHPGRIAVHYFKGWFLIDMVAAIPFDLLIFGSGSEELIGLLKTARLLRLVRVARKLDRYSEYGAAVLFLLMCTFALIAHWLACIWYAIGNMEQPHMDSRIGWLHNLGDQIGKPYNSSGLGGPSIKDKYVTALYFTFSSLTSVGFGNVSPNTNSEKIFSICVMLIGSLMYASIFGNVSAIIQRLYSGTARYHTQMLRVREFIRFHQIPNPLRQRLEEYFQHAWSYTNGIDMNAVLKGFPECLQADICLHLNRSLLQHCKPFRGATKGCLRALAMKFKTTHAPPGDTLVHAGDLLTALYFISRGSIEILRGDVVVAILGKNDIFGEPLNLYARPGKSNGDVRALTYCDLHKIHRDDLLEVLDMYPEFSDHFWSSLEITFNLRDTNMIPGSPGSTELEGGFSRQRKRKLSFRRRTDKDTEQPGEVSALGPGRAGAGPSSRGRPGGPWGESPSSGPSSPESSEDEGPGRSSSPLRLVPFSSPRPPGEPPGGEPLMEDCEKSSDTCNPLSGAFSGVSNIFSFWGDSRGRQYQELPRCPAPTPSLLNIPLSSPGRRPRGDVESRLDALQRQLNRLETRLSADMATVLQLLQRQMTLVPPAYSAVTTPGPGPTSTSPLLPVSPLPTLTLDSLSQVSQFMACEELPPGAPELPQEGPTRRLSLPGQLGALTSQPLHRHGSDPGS

Target: human ether-a-go-go (hERG) channels (Homo sapiens, UniProt Q12809)
Conditions: 20 μM olanzapine, peak amplitude at -50 mV

Cc1cc2c(s1)Nc1ccccc1N=C2N1CCN(C)CC1 [olanzapine]
effect of olanzapine on hERG channels: inhibition
